# AlphaSeq binding of Ab-14 light chain variants to a spike HR2 peptide

From the AlphaSeq antibody data of Li et al. 2023 (doi:10.1038/s41467-023-39022-2), copy in the FLAb collection.

Target peptide (SARS-CoV-2 spike, HR2 region): PDVDLGDISGINAS

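These sequences belong to a second round, designed from the earlier measurements on random variants of the parent. Several design methods are mixed in this list. The scFvs were displayed on barcoded MATa yeast, the peptide on MATalpha yeast. The frequency of each diploid, read from paired DNA barcodes, reflects how well the two displayed proteins bind. A regression on co-assayed BCL2-family reference pairs converts the normalised counts of each replicate to an apparent Kd. There are six technical replicates.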

Parent: Ab-14, a human scFv built as VH, the linker GGGGSGGGGSGGGGS, VL. Only the CDRs of the light chain vary.
VH: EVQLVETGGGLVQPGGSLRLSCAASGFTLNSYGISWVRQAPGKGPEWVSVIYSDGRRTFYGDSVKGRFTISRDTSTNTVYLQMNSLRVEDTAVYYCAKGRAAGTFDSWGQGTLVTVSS
VL: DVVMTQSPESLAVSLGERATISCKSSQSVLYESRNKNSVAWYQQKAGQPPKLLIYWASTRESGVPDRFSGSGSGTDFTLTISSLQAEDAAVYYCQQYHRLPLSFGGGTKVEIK

Sequences are complete VL domains. Values are log10 of the apparent Kd in nM; lower means stronger binding. The mean shown is taken over the replicates in which the pair was detected. "nd" means that the variant was in the library but no mating with the target was seen in any replicate; the authors take this as a sign of poor binding, and no number exists. Values of this round are not directly comparable with the first-round values of the same sequences. The parent sequence was in this pool as ten entries: three were never detected, three once, and four in most replicates, with averages from 0.34 to 2.37. In the paper, a design with two or fewer of six values counts as a poor binder. Nonspecific signal, from three strains lacking the peptide, appeared in 4% of pairings of all light chain designs, centred on 2.64 (5% of these signals below 1.59); values are not corrected for it.

| # | mean log10 Kd (nM) | replicates with signal | VL |
|---|---|---|---|
| 1 | nd | 0 of 6 | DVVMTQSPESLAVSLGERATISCQLSMMEQHMGDRMHNVAWYQQKAGQPPKLLIYDTNQAKMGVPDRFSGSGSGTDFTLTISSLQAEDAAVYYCQDYFRLPLMFGGGTKVEIK |
| 2 | 0.53 | 6 of 6 | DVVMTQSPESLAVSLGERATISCKFSQSWLYESRNKNSVAWYQQKAGQPPKLLIYGASSRESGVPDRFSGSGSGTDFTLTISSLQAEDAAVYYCQQYHRLPLSFGGGTKVEIK |
| 3 | 1.10 | 6 of 6 | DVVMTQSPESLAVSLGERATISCKISMLLNMTFETSNNVAWYQQKAGQPPKLLIYEMATREKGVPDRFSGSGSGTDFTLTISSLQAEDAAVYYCQQYNRLPLSFGGGTKVEIK |
| 4 | 2.46 | 3 of 6 | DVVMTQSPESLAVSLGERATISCKSSQSVIYESRNKNSVAWYQQKAGQPPKLLIYWASTREAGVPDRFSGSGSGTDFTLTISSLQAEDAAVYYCQQYHRLPLSFGGGTKVEIK |
| 5 | 0.62 | 6 of 6 | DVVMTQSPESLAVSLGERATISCKISMLHNQTFSQSNNVAWYQQKAGQPPKLLIYEMVTREKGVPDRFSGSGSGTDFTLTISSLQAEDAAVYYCQQYNRLPLSFGGGTKVEIK |
| 6 | nd | 0 of 6 | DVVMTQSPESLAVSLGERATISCKACQSVLYESRNKNSVAWYQQKAGQPPKLLIYWRSTRESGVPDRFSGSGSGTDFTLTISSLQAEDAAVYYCQQYHRLPLSFGGGTKVEIK |
| 7 | 0.75 | 6 of 6 | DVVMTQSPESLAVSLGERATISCKSSMSVLYESHNKNSVAWYQQKAGQPPKLLIYNASTRMSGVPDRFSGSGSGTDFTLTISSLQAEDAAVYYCQQYHRLPLSFGGGTKVEIK |
| 8 | 1.12 | 6 of 6 | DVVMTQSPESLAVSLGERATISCKLGSMVLLEYGNTNSIAWYQQKAGQPPKLLIYQQSTREEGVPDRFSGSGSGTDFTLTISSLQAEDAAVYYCQQYDRLPLSFGGGTKVEIK |
| 9 | 1.27 | 6 of 6 | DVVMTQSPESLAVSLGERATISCKSSQSVLYESRNKNSVAWYQQKAGQPPKLLIYDASTRESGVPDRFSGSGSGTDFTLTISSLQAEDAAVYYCQCYHRLPLSFGGGTKVEIK |
| 10 | 1.24 | 6 of 6 | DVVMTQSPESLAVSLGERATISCTIGSTLMYGSRNRSNVAWYQQKAGQPPKLLIYEVSERLNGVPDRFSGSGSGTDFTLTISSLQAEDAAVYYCQQYDRLPLFFGGGTKVEIK |
| 11 | 0.82 | 6 of 6 | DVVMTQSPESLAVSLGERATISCLVSQQELYEDRNKNSVAWYQQKAGQPPKLLIYHASQRLSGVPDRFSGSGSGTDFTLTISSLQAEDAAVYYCQQYHRLPLSFGGGTKVEIK |
| 12 | 3.37 | 1 of 6 | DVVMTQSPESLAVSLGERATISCMITAMLRGVGRDKNSVAWYQQKAGQPPKLLIYNAQTREQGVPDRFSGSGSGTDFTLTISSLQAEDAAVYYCQHYNRLPLSFGGGTKVEIK |
| 13 | 1.44 | 6 of 6 | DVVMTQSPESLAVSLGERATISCKVSPSQLYWSRNKNQVAWYQQKAGQPPKLLIYQANTRETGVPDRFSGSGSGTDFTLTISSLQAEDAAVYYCQQYHRLPLSFGGGTKVEIK |
| 14 | nd | 0 of 6 | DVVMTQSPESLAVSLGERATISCKSSQSVLYEHRNKNSCAWYQQKAGQPPKLLIYWASTRESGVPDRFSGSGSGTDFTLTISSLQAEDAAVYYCQQYHRLPLSFGGGTKVEIK |
| 15 | 0.30 | 6 of 6 | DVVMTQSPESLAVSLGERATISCSVTRETDGNGLKWNSVAWYQQKAGQPPKLLIYDAAEAMTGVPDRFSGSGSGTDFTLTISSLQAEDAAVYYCQQYFRLPLTFGGGTKVEIK |
| 16 | nd | 0 of 6 | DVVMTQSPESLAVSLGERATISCKSSISYLYESRNKNSVAWYQQKAGQPPKLLIYLHSTRESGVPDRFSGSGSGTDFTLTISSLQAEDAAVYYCQQYHRLPLSFGGGTKVEIK |
| 17 | 1.18 | 6 of 6 | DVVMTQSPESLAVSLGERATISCFFSLIQDSVGEAKNSIAWYQQKAGQPPKLLIYERNTKAHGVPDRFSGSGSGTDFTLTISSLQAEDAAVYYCQQYSRLPLVFGGGTKVEIK |

The first 2 variants above that were never detected:

{"VL": "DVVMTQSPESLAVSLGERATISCQLSMMEQHMGDRMHNVAWYQQKAGQPPKLLIYDTNQAKMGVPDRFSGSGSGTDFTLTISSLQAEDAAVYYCQDYFRLPLMFGGGTKVEIK", "mean log10 Kd (nM)": "nd", "replicates with signal": "0 of 6"}
{"VL": "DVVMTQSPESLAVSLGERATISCKACQSVLYESRNKNSVAWYQQKAGQPPKLLIYWRSTRESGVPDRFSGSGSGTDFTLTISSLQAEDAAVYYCQQYHRLPLSFGGGTKVEIK", "mean log10 Kd (nM)": "nd", "replicates with signal": "0 of 6"}